Source: US9745328B2, “Flap modulators” (JANSSEN PHARMACEUTICA NV, priority 2013, dated 2017)

Chains of the proteins cited; added tags and fusions are not shown.
UniProt P20292, whole entry: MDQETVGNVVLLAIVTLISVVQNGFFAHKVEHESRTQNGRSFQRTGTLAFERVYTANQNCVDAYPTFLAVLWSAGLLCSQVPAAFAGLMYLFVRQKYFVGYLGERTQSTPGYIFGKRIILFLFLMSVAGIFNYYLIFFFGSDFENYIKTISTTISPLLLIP

Biological target: human FLAP (Homo sapiens (Human), UniProt P20292)
Test: FLAP binding assay (HTRF format)
Conditions: read-out: FLAP Binding wild type HTRF Ki

## Fc1cc(Br)ccc1-c1ccc(-c2cnc3[nH]ccc3c2)c(F)c1
  Ki: > 10 µM
Human FLAP wild type, HTRF, Table 6 (additional runs)
  Ki: > 10 µM

Read-outs that look alike come from different tables or passages of the source.
